Experimental findings from ChEMBL document CHEMBL1139629, “Discovery of diphenylcarbamate derivatives as highly potent and selective IP receptor agonists: orally active prostacyclin mimetics. Part 3” (Bioorg Med Chem Lett, 2005) are described below.

Each structure is given as a SMILES string.

The test system of series [1] is Canis familiaris. Description: Bioavailability in dog after intravenous administdogion at 0.32 mg/kg dose. As to conditions: in vivo, read-out: Ba.
Series [2] has as its system Canis familiaris. The experiment in a line: Maximum concentdogion in dog after oral administdogion at 0.32 mg/kg dose. As to conditions: in vivo.
The subject of series [3] is Canis familiaris. The experiment in a line: Half life in dog after intravenous administdogion at 0.32 mg/kg dose. The following applies: in vivo.

For `O=C(O)COc1cccc2c1CC[C@](O)(COC(=O)N(c1ccccc1)c1ccccc1)C2`, the bioavailability in the series on Canis familiaris [1] is 98%. In the series with Canis familiaris [2], this molecule registered a Cmax of 305 ng/mL. In the series on Canis familiaris [3], this molecule had a half-life of 7.94 h.

The Cmax is the highest concentration seen after dosing. For orientation: half-life means how long it takes for the measured level to halve. High values mean slow decline, low ones rapid decline.
